Test: Cell cycle arrest in human A549 cells assessed as accumulation at G0/G1 phase at 50 nM after 48 hrs by propidium iodide staining based flow cytometry (reference value: 78.5%)
Assay type: functional
Summary of the method: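 A549 cells exposed for 48 h at 50 or 100 nM. Cells harvested, washed in PBS, fixed in ice-cold 70% ethanol and stained with propidium iodide. Phase distribution (G0/G1, S, G2/M) measured by flow cytometry against untreated cells.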

Q: With `COc1ccc(/C=C\c2cc(OC)c(OC)c(OC)c2)cc1O` [COMBRETASTATIN A4] as the compound, how does the Activity read?
A: 56.1%

Reference: ChEMBL document CHEMBL3875209, “Synthesis and biological evaluation of cis-restricted triazole/tetrazole mimics of combretastatin-benzothiazole hybrids as tubulin polymerization inhibitors and apoptosis inducers” (Bioorg Med Chem, 2017)
